Earlier results, collected in US20150024966A1, “MESENCHYMAL STEM CELLS FOR IN VITRO MODELING AND CELL-BASED THERAPY OF HUMAN DISEASES AND BANKS THEREOF” (BrainStem Biotec Ltd., priority 2012, published 2015).

Test system: ALS patients

Nc1nc2ccc(OC(F)(F)F)cc2s1 [riluzole]
increases the rate of survival: 6 months
